The source made the active and inactive calls. The rule behind the calls is not given here.
Experiments:
[1] = biological target: T1, Histone acetyltransferase p300 (Homo sapiens, UniProt Q09472); test: Inhibition of p300 in human MCF7 cells assessed as downregulation of pujana-breast cancer with BRACA1 mutated up gene set overexpression at 6 uM incubated for 48 hrs by RNA gene sequencing analysis relative to control; format: cell-based
[2] = biological target: T1, Histone acetyltransferase p300; test: Inhibition of p300 in human MCF7 cells assessed as estradiol-induced cell cycle related gene expression at 6 uM incubated for 48 hrs by RNA gene sequencing analysis relative to control; format: cell-based
[3] = biological target: T2, CREB-binding protein/Histone acetyltransferase p300 (Homo sapiens) (UniProt Q09472+Q92793); test: Inhibition of p300/CBP HAT domain in human Kasumi-1 cells assessed as reduction in H3K18 acetylation incubated for 12 hrs by Western blot analysis; format: cell-based
[4] = biological target: T1, Histone acetyltransferase p300; test: Competitive inhibition of recombinant human GST-tagged p300 HAT domain (1195 to 1673 residues) expressed in Escherichia coli BL21 codon plus cells using 2 to 100 uM histone H3 (1-21) peptide and acetyl-CoA as substrate preincubated with enzyme for 10 mins followed by substrate addition and measured after 30 mins by scintillation counting method
[5] = biological target: T1, Histone acetyltransferase p300; test: Inhibition of p300 in human MCF7 cells assessed as downregulation of SMID-breast cancer basal up gene set overexpression at 6 uM incubated for 48 hrs by RNA gene sequencing analysis relative to control; format: cell-based
[6] = biological target: T1, Histone acetyltransferase p300; test: Inhibition of p300 in human MCF7 cells assessed as estradiol-induced S phase related gene expression at 6 uM incubated for 48 hrs by RNA gene sequencing analysis relative to control; format: cell-based
[7] = biological target: T2, CREB-binding protein/Histone acetyltransferase p300 (Homo sapiens); test: Inhibition of p300/CBP HAT domain in human Kasumi-1 cells assessed as reduction in H3K27 acetylation incubated for 12 hrs by Western blot analysis; format: cell-based
[8] = biological target: T1, Histone acetyltransferase p300; test: Inhibition of p300 in human MCF7 cells assessed as estradiol-induced E2F gene expression at 6 uM incubated for 48 hrs by RNA gene sequencing analysis relative to control; format: cell-based
[9] = biological target: T1, Histone acetyltransferase p300; test: Inhibition of p300 in human MCF7 cells assessed as estradiol-induced early estrogen response related gene expression at 6 uM incubated for 48 hrs by RNA gene sequencing analysis relative to control; format: cell-based
[10] = biological target: T1, Histone acetyltransferase p300; test: Inhibition of p300 in human MCF7 cells assessed as downregulation of Kras 600-lung breast cancer up v1 up gene set overexpression at 6 uM incubated for 48 hrs by RNA gene sequencing analysis relative to control; format: cell-based
[11] = biological target: T1, Histone acetyltransferase p300; test: Inhibition of p300 in human MCF7 cells assessed as downregulation of Turashvili-breast lobular carcinoma vs ductal normal dn gene set overexpression at 6 uM incubated for 48 hrs by RNA gene sequencing analysis relative to control; format: cell-based
[12] = biological target: T1, Histone acetyltransferase p300; test: Inhibition of p300 in human MCF7 cells assessed as estradiol-induced DNA unwinding related gene expression at 6 uM incubated for 48 hrs by RNA gene sequencing analysis relative to control; format: cell-based
[13] = biological target: T1, Histone acetyltransferase p300; test: Inhibition of p300 in human MCF7 cells assessed as estradiol-induced G1/S phase related gene expression at 6 uM incubated for 48 hrs by RNA gene sequencing analysis relative to control; format: cell-based
[14] = biological target: T1, Histone acetyltransferase p300; test: Inhibition of p300 in human MCF7 cells assessed as downregulation of Finetti-breast cancer kinome red gene set overexpression at 6 uM incubated for 48 hrs by RNA gene sequencing analysis relative to control; format: cell-based
[15] = biological target: T1, Histone acetyltransferase p300; test: Inhibition of p300 in human MCF7 cells assessed as downregulation of Naderi-breast cancer prognosis up gene set overexpression at 6 uM incubated for 48 hrs by RNA gene sequencing analysis relative to control; format: cell-based
[16] = biological target: T1, Histone acetyltransferase p300; test: Inhibition of p300 in human MCF7 cells assessed as estradiol-induced mitotic M/G1 phase related gene expression at 6 uM incubated for 48 hrs by RNA gene sequencing analysis relative to control; format: cell-based
[17] = biological target: T1, Histone acetyltransferase p300; test: Inhibition of p300 in human MCF7 cells assessed as estradiol-induced MYC target V1 gene expression at 6 uM incubated for 48 hrs by RNA gene sequencing analysis relative to control; format: cell-based
[18] = biological target: T1, Histone acetyltransferase p300; test: Inhibition of p300 in human MCF7 cells assessed as estradiol-induced DNA synthesis related gene expression at 6 uM incubated for 48 hrs by RNA gene sequencing analysis relative to control; format: cell-based
[19] = biological target: T1, Histone acetyltransferase p300; test: Inhibition of p300 in human MCF7 cells assessed as downregulation of SMID-breast cancer relapse in brain up gene set overexpression at 6 uM incubated for 48 hrs by RNA gene sequencing analysis relative to control; format: cell-based
[20] = biological target: T1, Histone acetyltransferase p300; test: Inhibition of p300 in human MCF7 cells assessed as downregulation of Charafe-breast cancer luminal vs mesenchymal up gene set overexpression at 6 uM incubated for 48 hrs by RNA gene sequencing analysis relative to control; format: cell-based
[21] = biological target: T1, Histone acetyltransferase p300; test: Inhibition of p300 in human MCF7 cells assessed as estradiol-induced mitotic cell cycle related gene expression at 6 uM incubated for 48 hrs by RNA gene sequencing analysis relative to control; format: cell-based
[22] = biological target: T1, Histone acetyltransferase p300; test: Inhibition of p300 in human MCF7 cells assessed as estradiol-induced DNA replication related gene expression at 6 uM incubated for 48 hrs by RNA gene sequencing analysis relative to control; format: cell-based
[23] = biological target: T1, Histone acetyltransferase p300; test: Inhibition of p300 in human MCF7 cells assessed as downregulation of poola-invasive breast cancer up gene set overexpression at 6 uM incubated for 48 hrs by RNA gene sequencing analysis relative to control; format: cell-based
[24] = biological target: T1, Histone acetyltransferase p300; test: Inhibition of p300 in human MCF7 cells assessed as downregulation of pujana-breast cancer lit int network gene set overexpression at 6 uM incubated for 48 hrs by RNA gene sequencing analysis relative to control; format: cell-based
[25] = biological target: T1, Histone acetyltransferase p300; test: Inhibition of p300 in human MCF7 cells assessed as downregulation of Vantveer-breast cancer ESR1 up gene set overexpression at 6 uM incubated for 48 hrs by RNA gene sequencing analysis relative to control; format: cell-based
[26] = biological target: T1, Histone acetyltransferase p300; test: Non-competitive inhibition of recombinant human GST-tagged p300 HAT domain (1195 to 1673 residues) expressed in Escherichia coli BL21 codon plus cells using histone H3 (1-21) peptide and increasing concentration of acetyl-CoA as substrate preincubated with enzyme for 10 mins followed by substrate addition and measured after 30 mins by scintillation counting method
[27] = biological target: T2, CREB-binding protein/Histone acetyltransferase p300 (Homo sapiens); test: Inhibition of p300/CBP HAT domain in human Kasumi-1 cells assessed as reduction in H3K9 acetylation incubated for 12 hrs by Western blot analysis; format: cell-based
[28] = biological target: T1, Histone acetyltransferase p300; test: Inhibition of p300 in human MCF7 cells assessed as estradiol-induced G1/S transition related gene expression at 6 uM incubated for 48 hrs by RNA gene sequencing analysis relative to control; format: cell-based
[29] = biological target: T1, Histone acetyltransferase p300; test: Inhibition of p300 in human MCF7 cells assessed as downregulation of sotiriou-breast cancer grade 1 vs 3 up gene set overexpression at 6 uM incubated for 48 hrs by RNA gene sequencing analysis relative to control; format: cell-based
[30] = biological target: T1, Histone acetyltransferase p300; test: Inhibition of p300 in human MCF7 cells assessed as downregulation of Doane-breast cancer ESR1 up gene set overexpression at 6 uM incubated for 48 hrs by RNA gene sequencing analysis relative to control; format: cell-based
[31] = biological target: T1, Histone acetyltransferase p300; test: Inhibition of p300 in human MCF7 cells assessed as estradiol-induced late estrogen response related gene expression at 6 uM incubated for 48 hrs by RNA gene sequencing analysis relative to control; format: cell-based
[32] = biological target: T1, Histone acetyltransferase p300; test: Inhibition of p300 in human MCF7 cells assessed as downregulation of NIKOLSKY-breast cancer 19Q13.1 amplicon gene set overexpression at 6 uM incubated for 48 hrs by RNA gene sequencing analysis relative to control; format: cell-based
[33] = biological target: T1, Histone acetyltransferase p300; test: Inhibition of p300 in human MCF7 cells assessed as downregulation of Honrado-breast cancer BRCA1 vs BRCA2 up gene set overexpression at 6 uM incubated for 48 hrs by RNA gene sequencing analysis relative to control; format: cell-based
[34] = biological target: T1, Histone acetyltransferase p300; test: Inhibition of p300 in human MCF7 cells assessed as downregulation of Kras-breast cancer up v1 up gene set overexpression at 6 uM incubated for 48 hrs by RNA gene sequencing analysis relative to control; format: cell-based
[35] = biological target: T1, Histone acetyltransferase p300; test: Inhibition of p300 in human MCF7 cells assessed as downregulation of NIKOLSKY-breast cancer 16P13 amplicon gene set overexpression at 6 uM incubated for 48 hrs by RNA gene sequencing analysis relative to control; format: cell-based
[36] = biological target: T1, Histone acetyltransferase p300; test: Inhibition of p300 in human MCF7 cells assessed as estradiol-induced DNA repair related gene expression at 6 uM incubated for 48 hrs by RNA gene sequencing analysis relative to control; format: cell-based
[37] = biological target: T1, Histone acetyltransferase p300; test: Inhibition of p300 in human MCF7 cells assessed as downregulation of Yang-breast cancer ESR1 bulk up gene set overexpression at 6 uM incubated for 48 hrs by RNA gene sequencing analysis relative to control; format: cell-based
[38] = biological target: T1, Histone acetyltransferase p300; test: Inhibition of p300 in human MCF7 cells assessed as estradiol-induced G2M checkpoint related gene expression at 6 uM incubated for 48 hrs by RNA gene sequencing analysis relative to control; format: cell-based
[39] = biological target: T1, Histone acetyltransferase p300; test: Inhibition of p300 in human MCF7 cells assessed as downregulation of Farmer-breast cancer cluster 2 gene set overexpression at 6 uM incubated for 48 hrs by RNA gene sequencing analysis relative to control; format: cell-based
[40] = biological target: T1, Histone acetyltransferase p300; test: Inhibition of p300 in human MCF7 cells assessed as downregulation of Vantveer-breast cancer poor prognosis gene set overexpression at 6 uM incubated for 48 hrs by RNA gene sequencing analysis relative to control; format: cell-based
[41] = biological target: T1, Histone acetyltransferase p300; test: Inhibition of p300 in human MCF7 cells assessed as downregulation of SMID-breast cancer luminal B up gene set overexpression at 6 uM incubated for 48 hrs by RNA gene sequencing analysis relative to control; format: cell-based
[42] = biological target: T1, Histone acetyltransferase p300; test: Inhibition of p300 in human MCF7 cells assessed as downregulation of SMID-breast cancer relapse in bone up gene set overexpression at 6 uM incubated for 48 hrs by RNA gene sequencing analysis relative to control; format: cell-based
[43] = biological target: T1, Histone acetyltransferase p300; test: Inhibition of p300 in human MCF7 cells assessed as estradiol-induced DNA strand elongation related gene expression at 6 uM incubated for 48 hrs by RNA gene sequencing analysis relative to control; format: cell-based

Amino acid sequences for entries named in this document (tags omitted).
UniProt Q09472, whole entry: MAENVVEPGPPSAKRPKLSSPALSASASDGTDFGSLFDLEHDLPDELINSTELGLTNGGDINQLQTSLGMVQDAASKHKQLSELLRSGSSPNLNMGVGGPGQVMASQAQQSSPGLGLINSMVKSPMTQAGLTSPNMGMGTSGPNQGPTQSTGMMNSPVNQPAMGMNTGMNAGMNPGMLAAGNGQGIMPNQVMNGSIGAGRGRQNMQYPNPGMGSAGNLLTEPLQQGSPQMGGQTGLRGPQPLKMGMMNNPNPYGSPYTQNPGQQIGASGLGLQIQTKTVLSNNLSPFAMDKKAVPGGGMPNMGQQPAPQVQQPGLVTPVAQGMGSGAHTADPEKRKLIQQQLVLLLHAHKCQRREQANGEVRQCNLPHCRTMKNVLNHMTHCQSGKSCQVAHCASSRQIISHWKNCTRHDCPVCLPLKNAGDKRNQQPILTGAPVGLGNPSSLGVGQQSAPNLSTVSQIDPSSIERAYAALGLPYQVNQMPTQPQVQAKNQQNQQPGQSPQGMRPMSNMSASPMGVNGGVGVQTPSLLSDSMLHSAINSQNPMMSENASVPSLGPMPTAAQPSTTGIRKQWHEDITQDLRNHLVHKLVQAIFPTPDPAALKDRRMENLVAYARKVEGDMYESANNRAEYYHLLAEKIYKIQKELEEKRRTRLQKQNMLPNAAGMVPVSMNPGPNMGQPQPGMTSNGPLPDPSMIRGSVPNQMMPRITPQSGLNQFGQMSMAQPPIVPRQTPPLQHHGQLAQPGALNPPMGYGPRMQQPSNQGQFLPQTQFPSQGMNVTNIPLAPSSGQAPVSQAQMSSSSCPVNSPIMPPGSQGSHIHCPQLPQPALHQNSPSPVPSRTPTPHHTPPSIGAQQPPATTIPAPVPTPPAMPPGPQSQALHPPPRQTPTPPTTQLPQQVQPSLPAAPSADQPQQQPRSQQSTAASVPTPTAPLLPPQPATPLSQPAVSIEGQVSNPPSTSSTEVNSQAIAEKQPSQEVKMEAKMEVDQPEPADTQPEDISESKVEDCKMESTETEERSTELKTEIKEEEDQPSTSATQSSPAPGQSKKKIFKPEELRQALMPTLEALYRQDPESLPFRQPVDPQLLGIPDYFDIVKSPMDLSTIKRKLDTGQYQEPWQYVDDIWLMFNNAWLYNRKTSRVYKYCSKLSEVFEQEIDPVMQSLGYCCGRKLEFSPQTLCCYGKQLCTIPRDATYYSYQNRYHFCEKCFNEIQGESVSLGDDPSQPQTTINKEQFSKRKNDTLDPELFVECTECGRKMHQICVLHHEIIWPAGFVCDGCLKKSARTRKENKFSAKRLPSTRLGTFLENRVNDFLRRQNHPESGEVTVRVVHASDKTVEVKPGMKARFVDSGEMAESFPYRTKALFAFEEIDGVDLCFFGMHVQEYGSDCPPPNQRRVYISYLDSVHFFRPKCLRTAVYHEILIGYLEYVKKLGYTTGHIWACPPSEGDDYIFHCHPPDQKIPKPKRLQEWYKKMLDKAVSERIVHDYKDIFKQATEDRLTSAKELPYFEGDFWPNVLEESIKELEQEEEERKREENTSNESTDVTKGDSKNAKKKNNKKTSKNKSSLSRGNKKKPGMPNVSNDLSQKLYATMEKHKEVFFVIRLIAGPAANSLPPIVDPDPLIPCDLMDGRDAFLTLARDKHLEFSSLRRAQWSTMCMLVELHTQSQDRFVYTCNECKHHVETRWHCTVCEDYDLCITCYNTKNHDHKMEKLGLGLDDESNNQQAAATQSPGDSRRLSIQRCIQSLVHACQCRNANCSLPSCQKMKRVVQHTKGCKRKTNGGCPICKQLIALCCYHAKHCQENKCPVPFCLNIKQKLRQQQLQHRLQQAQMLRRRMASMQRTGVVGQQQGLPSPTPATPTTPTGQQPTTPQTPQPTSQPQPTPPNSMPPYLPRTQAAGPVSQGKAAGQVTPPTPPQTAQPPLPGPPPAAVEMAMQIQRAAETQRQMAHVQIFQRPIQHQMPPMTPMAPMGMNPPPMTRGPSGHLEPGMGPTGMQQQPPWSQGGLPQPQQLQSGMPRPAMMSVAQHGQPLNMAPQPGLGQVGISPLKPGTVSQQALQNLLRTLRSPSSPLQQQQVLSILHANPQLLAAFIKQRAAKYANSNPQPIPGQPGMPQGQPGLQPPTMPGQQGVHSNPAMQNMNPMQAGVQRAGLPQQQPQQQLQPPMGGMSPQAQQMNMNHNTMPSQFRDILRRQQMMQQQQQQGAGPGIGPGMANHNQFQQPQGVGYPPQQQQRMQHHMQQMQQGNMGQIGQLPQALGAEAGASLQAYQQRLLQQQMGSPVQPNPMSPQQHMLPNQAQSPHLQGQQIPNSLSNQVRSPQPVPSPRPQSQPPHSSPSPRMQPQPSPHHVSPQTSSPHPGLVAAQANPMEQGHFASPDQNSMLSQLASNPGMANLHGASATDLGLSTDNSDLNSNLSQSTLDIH
UniProt Q92793, whole entry, looked up: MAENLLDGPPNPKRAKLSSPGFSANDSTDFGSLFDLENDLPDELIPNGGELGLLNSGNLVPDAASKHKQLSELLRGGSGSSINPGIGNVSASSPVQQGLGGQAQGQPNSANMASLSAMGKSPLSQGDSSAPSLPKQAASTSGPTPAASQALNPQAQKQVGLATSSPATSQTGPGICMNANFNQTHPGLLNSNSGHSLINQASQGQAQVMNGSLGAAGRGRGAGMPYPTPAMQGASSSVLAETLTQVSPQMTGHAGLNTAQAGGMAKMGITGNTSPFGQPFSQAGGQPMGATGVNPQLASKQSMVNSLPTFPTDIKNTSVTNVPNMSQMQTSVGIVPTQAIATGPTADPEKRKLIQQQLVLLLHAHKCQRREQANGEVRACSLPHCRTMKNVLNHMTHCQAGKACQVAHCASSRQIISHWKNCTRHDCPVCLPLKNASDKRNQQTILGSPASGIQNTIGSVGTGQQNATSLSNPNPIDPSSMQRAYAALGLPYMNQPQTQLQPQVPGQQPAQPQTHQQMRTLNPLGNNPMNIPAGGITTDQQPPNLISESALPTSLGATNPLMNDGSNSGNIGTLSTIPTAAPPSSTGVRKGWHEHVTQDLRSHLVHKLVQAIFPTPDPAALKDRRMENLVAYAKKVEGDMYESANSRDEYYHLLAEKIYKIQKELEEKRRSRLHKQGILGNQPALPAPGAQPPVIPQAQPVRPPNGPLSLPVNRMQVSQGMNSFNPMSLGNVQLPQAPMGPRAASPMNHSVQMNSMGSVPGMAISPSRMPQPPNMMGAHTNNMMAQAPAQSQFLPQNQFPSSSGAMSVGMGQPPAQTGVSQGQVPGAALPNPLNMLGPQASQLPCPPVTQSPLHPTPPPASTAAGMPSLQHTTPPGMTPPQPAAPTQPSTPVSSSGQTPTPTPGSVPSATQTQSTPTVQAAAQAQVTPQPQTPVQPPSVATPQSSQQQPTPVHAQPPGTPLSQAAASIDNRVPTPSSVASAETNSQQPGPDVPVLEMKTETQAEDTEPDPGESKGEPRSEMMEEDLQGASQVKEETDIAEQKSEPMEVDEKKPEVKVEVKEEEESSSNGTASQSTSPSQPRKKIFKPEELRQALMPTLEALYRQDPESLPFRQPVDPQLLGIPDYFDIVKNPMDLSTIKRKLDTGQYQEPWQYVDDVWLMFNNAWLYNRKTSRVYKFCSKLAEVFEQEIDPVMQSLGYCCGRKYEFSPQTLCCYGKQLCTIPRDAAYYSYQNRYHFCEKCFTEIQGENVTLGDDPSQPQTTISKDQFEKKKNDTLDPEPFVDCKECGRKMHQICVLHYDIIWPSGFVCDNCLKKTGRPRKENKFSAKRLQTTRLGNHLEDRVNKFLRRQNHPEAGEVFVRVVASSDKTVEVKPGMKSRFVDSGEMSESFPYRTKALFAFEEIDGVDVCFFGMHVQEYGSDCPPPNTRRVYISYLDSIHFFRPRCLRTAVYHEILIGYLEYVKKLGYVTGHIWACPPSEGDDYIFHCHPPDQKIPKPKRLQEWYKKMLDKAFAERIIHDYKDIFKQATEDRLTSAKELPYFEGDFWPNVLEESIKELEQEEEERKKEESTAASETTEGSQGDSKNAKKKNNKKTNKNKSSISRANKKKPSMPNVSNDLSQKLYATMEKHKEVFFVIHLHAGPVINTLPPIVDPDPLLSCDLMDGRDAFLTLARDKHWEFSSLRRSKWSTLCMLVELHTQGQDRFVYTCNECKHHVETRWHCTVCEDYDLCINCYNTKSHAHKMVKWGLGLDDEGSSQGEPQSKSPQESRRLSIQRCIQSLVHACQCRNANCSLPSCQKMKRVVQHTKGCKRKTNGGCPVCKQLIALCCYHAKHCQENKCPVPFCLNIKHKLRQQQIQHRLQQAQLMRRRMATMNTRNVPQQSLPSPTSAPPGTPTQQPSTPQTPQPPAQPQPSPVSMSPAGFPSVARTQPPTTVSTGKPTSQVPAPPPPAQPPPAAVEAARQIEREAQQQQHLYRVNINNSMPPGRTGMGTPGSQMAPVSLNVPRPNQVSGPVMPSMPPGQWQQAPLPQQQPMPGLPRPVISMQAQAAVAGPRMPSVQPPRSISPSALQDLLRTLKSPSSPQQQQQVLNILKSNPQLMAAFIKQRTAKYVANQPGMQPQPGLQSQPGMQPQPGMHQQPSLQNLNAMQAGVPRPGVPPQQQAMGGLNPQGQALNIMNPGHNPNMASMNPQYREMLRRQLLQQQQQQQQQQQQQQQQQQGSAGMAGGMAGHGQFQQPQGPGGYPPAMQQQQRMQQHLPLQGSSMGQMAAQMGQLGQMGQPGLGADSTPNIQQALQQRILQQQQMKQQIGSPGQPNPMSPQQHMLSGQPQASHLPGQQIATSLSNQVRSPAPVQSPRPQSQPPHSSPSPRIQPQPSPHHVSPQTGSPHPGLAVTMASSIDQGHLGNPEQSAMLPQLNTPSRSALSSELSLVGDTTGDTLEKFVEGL

## CC(C)(C)c1ccc(-c2cc(CNCC3CCNCC3)sc2-c2ccc(C(C)(C)C)cc2)cc1
[1]
  fold change (FC): 3.19
[2]
  fold change (FC): -4.36
[3]
  inhibition: Dose-dependent effect
[4]
  inhibition: Active
[5]
  fold change (FC): 2.52
[6]
  fold change (FC): -2.41
[7]
  inhibition: Dose-dependent effect
[8]
  fold change (FC): -5.33
[9]
  fold change (FC): -1.98
[10]
  fold change (FC): 1.82
[11]
  fold change (FC): 1.59
[12]
  fold change (FC): -2.2
[13]
  fold change (FC): -2.59
[14]
  fold change (FC): 2.25
[15]
  fold change (FC): 1.58
[16]
  fold change (FC): -3.25
[17]
  fold change (FC): -2.95
[18]
  fold change (FC): -2.22
[19]
  fold change (FC): 1.79
[20]
  fold change (FC): 1.69
[21]
  fold change (FC): -3.75
[22]
  fold change (FC): -3.65
[23]
  fold change (FC): 2.48
[24]
  fold change (FC): 2.13
[25]
  fold change (FC): 1.81
[26]
  inhibition: Active
[27]
  inhibition: Dose-dependent effect
[28]
  fold change (FC): -2.41
[29]
  fold change (FC): 4.66
[30]
  fold change (FC): 2.06
[31]
  fold change (FC): -2.78
[32]
  fold change (FC): 1.53
[33]
  fold change (FC): 1.58
[34]
  fold change (FC): 1.61
[35]
  fold change (FC): 2.44
[36]
  fold change (FC): -2.36
[37]
  fold change (FC): 2.04
[38]
  fold change (FC): -3.85
[39]
  fold change (FC): 1.97
[40]
  fold change (FC): 2.16
[41]
  fold change (FC): 2.34
[42]
  fold change (FC): 2.46
[43]
  fold change (FC): -3.24

— ChEMBL document CHEMBL4342520, “Discovery, Structure-Activity Relationship, and Biological Activity of Histone-Competitive Inhibitors of Histone Acetyltransferases P300/CBP” (J Med Chem, 2020)
